The values that follow come from ChEMBL document CHEMBL4359863, “Structure-guided development of purine amide, hydroxamate, and amidoxime for the inhibition of non-small cell lung cancer” (Eur J Med Chem, 2019).

Sequences of proteins named here, by UniProt entry; tags and fusion partners are left off. A change or cut given only in a name is not applied to a line headed by its entry.
UniProt P54646: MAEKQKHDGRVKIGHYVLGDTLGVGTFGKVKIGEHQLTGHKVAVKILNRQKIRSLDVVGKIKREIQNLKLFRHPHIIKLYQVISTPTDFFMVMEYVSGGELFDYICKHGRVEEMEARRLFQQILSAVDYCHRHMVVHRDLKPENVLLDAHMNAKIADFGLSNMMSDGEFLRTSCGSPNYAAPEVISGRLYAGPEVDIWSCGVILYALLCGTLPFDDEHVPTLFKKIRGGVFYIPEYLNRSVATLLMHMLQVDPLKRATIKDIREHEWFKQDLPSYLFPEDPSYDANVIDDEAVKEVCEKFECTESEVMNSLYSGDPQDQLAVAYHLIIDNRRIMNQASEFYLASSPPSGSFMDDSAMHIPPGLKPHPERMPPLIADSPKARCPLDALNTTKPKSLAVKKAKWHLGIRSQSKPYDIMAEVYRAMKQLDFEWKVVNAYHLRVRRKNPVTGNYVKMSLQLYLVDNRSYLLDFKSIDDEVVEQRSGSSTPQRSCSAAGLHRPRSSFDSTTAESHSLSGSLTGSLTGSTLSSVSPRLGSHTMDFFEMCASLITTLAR
UniProt Q05397, whole entry, looked up: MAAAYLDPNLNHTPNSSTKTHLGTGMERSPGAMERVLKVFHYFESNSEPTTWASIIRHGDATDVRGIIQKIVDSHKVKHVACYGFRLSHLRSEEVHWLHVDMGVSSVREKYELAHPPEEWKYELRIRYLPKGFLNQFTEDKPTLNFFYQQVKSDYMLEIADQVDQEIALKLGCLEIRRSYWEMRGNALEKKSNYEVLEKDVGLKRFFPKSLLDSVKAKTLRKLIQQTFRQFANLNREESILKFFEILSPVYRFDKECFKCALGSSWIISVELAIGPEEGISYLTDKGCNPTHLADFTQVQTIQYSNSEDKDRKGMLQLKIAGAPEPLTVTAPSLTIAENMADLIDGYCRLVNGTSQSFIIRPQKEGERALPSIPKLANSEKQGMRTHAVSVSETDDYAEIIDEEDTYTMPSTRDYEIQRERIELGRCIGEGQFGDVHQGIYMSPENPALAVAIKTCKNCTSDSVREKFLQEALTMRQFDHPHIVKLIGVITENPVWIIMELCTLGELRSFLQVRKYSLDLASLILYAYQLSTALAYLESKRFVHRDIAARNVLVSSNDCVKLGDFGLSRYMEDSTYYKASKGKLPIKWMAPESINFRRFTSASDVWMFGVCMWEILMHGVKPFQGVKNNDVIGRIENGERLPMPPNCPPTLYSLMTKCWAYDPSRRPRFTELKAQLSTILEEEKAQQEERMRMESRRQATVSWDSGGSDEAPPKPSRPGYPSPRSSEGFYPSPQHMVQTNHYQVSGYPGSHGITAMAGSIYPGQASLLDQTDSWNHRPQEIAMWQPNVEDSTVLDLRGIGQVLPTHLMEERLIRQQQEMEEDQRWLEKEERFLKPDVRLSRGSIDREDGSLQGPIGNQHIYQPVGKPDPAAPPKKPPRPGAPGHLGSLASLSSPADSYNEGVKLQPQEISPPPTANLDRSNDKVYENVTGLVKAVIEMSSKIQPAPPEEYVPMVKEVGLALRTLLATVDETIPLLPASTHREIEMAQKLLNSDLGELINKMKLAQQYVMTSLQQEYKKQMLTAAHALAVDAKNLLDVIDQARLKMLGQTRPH
UniProt P04637, whole entry, looked up: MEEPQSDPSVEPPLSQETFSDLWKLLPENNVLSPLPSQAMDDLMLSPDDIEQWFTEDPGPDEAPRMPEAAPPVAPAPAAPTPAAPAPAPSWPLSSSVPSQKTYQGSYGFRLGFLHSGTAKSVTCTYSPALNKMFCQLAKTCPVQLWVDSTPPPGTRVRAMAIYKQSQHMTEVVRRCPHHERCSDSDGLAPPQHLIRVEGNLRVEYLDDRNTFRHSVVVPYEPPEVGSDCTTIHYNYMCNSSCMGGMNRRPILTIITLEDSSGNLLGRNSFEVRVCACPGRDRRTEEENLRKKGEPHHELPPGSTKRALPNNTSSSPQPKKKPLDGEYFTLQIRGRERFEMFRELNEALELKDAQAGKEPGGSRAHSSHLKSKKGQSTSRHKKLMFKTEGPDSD
UniProt P05412, whole entry: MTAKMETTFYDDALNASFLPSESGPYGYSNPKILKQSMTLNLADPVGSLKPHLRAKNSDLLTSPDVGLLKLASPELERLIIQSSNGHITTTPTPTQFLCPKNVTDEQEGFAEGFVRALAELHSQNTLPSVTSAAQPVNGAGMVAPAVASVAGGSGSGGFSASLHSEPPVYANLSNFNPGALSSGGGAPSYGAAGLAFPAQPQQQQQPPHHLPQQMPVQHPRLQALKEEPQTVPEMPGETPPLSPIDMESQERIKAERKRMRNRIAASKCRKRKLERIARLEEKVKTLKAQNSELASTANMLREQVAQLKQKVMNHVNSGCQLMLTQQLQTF
UniProt P27361, whole entry, looked up: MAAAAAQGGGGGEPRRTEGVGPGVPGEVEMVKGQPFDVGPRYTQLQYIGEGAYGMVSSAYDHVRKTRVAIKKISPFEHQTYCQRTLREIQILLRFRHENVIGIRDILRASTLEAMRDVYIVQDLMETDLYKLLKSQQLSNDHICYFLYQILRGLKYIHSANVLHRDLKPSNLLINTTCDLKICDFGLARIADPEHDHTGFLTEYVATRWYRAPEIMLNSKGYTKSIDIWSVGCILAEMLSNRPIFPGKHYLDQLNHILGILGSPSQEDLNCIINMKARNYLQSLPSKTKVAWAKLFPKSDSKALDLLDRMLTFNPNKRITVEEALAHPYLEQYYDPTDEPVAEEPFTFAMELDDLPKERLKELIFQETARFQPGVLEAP
UniProt P28482, whole entry, looked up: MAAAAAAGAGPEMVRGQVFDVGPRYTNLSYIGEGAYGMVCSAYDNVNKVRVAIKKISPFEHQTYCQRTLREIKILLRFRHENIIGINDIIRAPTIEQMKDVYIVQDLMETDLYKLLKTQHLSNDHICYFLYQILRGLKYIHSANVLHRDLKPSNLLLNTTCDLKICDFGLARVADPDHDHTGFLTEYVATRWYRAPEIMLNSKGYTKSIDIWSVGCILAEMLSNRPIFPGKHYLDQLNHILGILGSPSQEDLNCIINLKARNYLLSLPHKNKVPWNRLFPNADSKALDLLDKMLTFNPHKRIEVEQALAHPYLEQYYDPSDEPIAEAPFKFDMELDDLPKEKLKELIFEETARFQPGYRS
UniProt P04792, whole entry: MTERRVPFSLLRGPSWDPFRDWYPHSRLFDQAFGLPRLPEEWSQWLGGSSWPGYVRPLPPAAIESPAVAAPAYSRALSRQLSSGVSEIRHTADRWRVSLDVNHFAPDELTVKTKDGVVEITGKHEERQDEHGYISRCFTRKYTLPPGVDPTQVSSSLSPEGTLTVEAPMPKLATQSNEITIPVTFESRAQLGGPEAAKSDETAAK
UniProt P07947, whole entry, looked up: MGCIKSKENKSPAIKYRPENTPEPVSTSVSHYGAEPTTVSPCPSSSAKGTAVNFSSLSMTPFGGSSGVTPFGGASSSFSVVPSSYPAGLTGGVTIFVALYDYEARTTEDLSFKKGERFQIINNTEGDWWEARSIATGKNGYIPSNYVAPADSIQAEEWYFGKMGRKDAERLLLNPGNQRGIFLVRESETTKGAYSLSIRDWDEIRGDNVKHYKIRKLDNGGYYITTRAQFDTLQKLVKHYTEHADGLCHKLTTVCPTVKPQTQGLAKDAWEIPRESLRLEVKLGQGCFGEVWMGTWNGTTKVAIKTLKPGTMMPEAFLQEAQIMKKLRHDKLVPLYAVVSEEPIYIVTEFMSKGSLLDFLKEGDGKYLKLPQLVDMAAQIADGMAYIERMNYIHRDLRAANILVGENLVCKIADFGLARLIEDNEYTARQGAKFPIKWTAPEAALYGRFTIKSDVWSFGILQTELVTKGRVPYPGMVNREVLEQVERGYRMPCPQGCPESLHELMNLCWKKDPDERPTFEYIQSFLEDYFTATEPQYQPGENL

The structures appear in SMILES notation.

What all share (settings): NCI-H1975
In assay [1] the target is 5'-AMP-activated protein kinase catalytic subunit alpha-2 (Homo sapiens) (UniProt P54646).
For assay [2] the target is unchanged. This is another data set of the same source.
The target in assay [3] is T1, Signal transducer and activator of transcription 6 (Homo sapiens) (UniProt P42226).
T1 sequence (whole entry): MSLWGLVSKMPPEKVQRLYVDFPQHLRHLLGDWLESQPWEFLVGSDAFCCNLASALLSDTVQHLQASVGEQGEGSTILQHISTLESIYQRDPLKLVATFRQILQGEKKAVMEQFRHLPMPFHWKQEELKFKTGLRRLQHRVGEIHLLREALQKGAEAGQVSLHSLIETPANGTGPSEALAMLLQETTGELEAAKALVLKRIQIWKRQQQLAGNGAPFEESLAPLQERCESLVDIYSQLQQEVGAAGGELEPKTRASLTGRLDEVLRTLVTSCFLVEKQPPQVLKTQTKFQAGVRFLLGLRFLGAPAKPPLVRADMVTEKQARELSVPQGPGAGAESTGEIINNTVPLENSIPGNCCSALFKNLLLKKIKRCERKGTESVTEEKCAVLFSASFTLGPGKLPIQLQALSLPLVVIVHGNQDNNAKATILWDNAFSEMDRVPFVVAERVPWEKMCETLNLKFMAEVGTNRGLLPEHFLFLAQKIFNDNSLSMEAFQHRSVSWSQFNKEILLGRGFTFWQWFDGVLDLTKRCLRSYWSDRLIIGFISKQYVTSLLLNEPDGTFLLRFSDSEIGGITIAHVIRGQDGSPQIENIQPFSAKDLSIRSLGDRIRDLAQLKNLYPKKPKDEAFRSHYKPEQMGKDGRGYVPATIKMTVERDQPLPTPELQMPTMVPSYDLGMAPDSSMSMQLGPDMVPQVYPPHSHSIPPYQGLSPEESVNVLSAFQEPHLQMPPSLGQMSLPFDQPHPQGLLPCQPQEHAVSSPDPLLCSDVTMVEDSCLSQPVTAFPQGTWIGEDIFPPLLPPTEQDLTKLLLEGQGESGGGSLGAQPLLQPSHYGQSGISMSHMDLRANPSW

For assay [4], the target named is Focal adhesion kinase 1 (Homo sapiens) (UniProt Q05397).
The target of assay [5] is Cellular tumor antigen p53 (Homo sapiens) (UniProt P04637).
For assay [6], the target named is Transcription factor Jun (Homo sapiens) (UniProt P05412).
For assay [7], the target named is T2, 1-phosphatidylinositol 4,5-bisphosphate phosphodiesterase gamma-1 (Homo sapiens) (UniProt P19174).
T2 sequence (whole entry): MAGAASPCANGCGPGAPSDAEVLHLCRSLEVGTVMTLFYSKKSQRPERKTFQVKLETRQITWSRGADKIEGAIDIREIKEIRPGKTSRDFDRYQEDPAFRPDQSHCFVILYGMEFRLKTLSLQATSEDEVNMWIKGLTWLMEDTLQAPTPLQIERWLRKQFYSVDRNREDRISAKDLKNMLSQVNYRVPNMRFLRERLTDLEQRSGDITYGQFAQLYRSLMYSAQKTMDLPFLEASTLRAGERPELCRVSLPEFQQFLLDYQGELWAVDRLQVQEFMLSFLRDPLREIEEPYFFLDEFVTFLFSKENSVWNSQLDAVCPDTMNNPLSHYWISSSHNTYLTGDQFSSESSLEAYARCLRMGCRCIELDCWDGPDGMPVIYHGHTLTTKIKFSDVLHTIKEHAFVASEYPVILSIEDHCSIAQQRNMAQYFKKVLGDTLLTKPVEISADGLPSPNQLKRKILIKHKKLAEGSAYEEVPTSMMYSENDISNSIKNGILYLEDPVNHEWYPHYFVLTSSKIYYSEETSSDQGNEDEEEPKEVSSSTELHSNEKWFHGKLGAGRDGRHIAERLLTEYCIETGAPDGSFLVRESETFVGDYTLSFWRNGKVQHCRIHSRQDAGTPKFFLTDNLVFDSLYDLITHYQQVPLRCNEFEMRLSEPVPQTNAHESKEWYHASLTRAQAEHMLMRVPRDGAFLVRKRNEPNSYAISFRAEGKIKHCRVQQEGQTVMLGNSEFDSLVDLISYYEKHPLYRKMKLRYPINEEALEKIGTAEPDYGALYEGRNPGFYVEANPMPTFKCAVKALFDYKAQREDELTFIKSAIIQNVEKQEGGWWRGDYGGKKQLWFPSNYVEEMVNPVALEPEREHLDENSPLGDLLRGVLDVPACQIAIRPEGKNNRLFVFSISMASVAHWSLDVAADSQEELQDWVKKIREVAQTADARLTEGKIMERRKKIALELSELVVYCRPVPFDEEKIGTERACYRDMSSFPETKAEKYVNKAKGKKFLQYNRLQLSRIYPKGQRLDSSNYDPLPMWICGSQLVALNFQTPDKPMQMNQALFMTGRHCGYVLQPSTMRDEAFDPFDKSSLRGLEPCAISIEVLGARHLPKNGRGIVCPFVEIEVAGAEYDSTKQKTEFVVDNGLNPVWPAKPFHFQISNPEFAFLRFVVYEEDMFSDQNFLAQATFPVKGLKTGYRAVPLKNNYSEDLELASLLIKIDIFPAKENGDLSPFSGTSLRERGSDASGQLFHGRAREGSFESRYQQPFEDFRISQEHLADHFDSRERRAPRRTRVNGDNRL

Assay [8] concerns the target T3, Nitric oxide synthase 3 (Homo sapiens) (UniProt P29474).
T3 sequence (whole entry): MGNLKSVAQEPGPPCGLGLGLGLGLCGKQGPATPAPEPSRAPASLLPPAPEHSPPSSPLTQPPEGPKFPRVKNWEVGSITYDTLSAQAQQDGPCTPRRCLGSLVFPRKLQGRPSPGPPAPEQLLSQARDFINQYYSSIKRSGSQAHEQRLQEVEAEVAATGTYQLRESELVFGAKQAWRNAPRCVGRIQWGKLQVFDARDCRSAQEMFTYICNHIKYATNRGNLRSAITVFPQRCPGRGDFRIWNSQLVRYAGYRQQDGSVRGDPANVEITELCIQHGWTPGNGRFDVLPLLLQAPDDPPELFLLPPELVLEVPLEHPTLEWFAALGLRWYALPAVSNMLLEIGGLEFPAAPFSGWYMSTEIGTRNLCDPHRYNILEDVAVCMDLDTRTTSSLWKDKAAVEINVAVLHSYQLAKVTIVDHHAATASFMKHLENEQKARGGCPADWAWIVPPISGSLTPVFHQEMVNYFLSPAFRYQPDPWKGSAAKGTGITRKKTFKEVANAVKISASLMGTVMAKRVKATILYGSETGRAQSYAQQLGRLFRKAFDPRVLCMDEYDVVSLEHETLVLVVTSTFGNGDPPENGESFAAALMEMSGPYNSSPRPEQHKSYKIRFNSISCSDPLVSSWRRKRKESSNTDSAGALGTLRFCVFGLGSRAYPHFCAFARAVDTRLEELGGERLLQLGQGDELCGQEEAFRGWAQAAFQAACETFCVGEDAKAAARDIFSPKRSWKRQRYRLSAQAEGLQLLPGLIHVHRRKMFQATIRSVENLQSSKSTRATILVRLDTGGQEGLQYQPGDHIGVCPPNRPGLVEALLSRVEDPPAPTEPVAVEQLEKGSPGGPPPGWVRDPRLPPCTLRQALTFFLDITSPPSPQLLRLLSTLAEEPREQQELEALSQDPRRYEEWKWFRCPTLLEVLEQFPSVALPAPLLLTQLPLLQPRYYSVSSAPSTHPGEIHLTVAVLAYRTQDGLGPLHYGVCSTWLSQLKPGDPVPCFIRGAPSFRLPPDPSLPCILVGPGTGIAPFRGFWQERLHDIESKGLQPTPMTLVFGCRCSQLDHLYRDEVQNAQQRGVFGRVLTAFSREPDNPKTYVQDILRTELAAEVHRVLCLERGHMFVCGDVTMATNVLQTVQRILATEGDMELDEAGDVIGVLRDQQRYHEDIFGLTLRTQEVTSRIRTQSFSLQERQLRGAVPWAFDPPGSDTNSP

Assay [9] concerns the target Mitogen-activated protein kinase; ERK1/ERK2 (Homo sapiens) (UniProt P27361+P28482).
In assay [10] the target is Heat shock protein beta-1 (Homo sapiens) (UniProt P04792).
Assay [11] has as its target Tyrosine-protein kinase Yes (Homo sapiens) (UniProt P07947).

In the case of `CCOc1ccc(-c2nc(/C(N)=N/O)c3[nH]c(=O)n(-c4ccccc4OC)c3n2)cc1`, the log2FC in [1] is -0.04; in assay [2], -0.27; in [3], -0.25; in [4] it was -0.17; in assay [5], 0.61; in [6], 0.57. This compound yielded a log2FC in assay [7] of 0.87.

Take `CCOc1ccc(-c2nc(C(=O)NO)c3[nH]c(=O)n(-c4ccccc4OC)c3n2)cc1`: the log2FC in assay [2] was -0.02; in [3] it was 0.27; in [6] it was 0.23; in assay [7], 0.7; in assay [8] it was -0.27; in assay [9], 0.39. Moreover, the log2FC is -0.25 in assay [10] and -0.41 in assay [11].
